# According to paper PMC10247778, “PXL1 and SERKs act as receptor–coreceptor complexes for the CLE19 peptide to regulate pollen development” (Nature Communications, 2023):
# By UniProt entry, the sequences of proteins in these tests, tags left out. Residues count along the entry.
# UniProt Q9FRS6, 24-639 limits assumed: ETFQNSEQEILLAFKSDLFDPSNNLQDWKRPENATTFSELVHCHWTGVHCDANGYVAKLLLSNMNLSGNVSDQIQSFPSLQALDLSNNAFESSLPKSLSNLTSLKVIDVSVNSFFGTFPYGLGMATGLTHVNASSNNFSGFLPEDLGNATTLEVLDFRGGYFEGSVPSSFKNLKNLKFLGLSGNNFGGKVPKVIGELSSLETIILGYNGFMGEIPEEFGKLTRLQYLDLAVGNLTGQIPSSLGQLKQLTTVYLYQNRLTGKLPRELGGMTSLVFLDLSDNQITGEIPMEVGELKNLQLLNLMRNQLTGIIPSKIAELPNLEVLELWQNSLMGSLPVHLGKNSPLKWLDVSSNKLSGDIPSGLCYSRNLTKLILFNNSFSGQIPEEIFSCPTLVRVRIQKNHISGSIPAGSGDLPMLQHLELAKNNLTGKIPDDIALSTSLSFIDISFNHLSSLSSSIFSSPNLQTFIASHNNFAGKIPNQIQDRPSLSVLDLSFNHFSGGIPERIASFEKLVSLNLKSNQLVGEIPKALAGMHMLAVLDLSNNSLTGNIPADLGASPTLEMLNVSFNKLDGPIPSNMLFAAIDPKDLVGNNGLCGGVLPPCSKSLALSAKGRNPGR
# How the values were obtained:
# LRR domain of PXY = conditions: gel-filtration MS assay, ref Song et al., 2016, Qian et al., 2018, Zhang et al.; cited from earlier work
# Text: P values are caculated by chi-square, and n indicates anther count used for each genotype. (g) Expression of PXL1, PXL2 and PXY genes in inflorescenes, anther ...
# PXL1^LRR [1] = target: T1, PXL1^LRR (Arabidopsis thaliana, UniProt Q9FRS6); assay: ITC, CLE peptide with PXL1^LRR; format: binding; conditions: 2 µM (literature) vs CLE19 0.35 µM
# Experimental: Both fusion proteins were expressed in High Five cells at 22 °C and purified using an Ni-NTA (Novagen) column. After elution and concentration, the proteins were further purified by size-exclusion chromatography (HiLoad 200, GE Healthcare) in buffer containing 10 mM Bis-Tris, pH 6.0, and 100 mM NaCl. […] The ITC data was analyzed using MicroCal Origin 7.0.
# SERK2-PXY interaction = conditions: ref Zhang et al., 2016; cited from earlier work
# Text: It is possible that PXL1/PXL2/PXY form homod ...
# PXL1 (PXL1^LRR) = assay: Gel filtration-MALDI-TOF identification of peptides copurified with PXL1 LRR; format: binding, Arabidopsis; conditions: PXL1^LRR incubated with synthesized peptide mixture (0.1 mg each), 10 mM Bis-Tris pH 6.0, 100 mM NaCl, on ice 1 h, Superdex 200
# PXL1^LRR [2] = target: T1, PXL1^LRR; conditions: read-out: binding affinity, CLE41/TDIF-PXL1; ITC; ref [16],[32] (Zhang et al., 2016); cited from earlier work
# Experimental: Among these three RLK proteins, both PXL1 and PXL2 directly interact with CLE19, with dissociation constants (Kd) of ~346 nM and ~714 nM, respectively (Figs. 1b and 5i), whereas PXY has only a weak interaction with CLE19 (Fig. 5j). […] P values are caculated by chi-square, and n indicates anther count used for each genotype. (g) Expression of PXL1, PXL2 and PXY genes in inflorescenes, anther ... || page 15: as Fig. 5i-j of the revised manuscript, (c) was shown as was shown as Fig. 5k, and (d-e) were shown as Fig. S8a-b in the revised manuscript. Reference: 1. […] Cell Res. 26, 543–555 (2016). 2. For many of the experiments, the number of replicates performed is not clear. The number of needs to be explicitly stated in the manuscript, including in figure legends. Response: Thanks for pointing out this. The number of replicates is three in all the ... || (+ 1 further places)
# PXY^LRR = conditions: in vitro; ref [16],[32]; cited from earlier work
# Experimental: (§1) Among these three RLK proteins, both PXL1 and PXL2 directly interact with CLE19, with dissociation constants (Kd) of ~346 nM and ~714 nM, respectively (Figs. 1b and 5i), whereas PXY has only a weak interaction with CLE19 (Fig. 5j). In addition, both PXL1 and PXL2, but not PXY, could form receptor–coreceptor complexes with SER ...
# PXL1^LRR [3] = target: T1, PXL1^LRR; conditions: in vitro; ref [16],[32]; cited from earlier work
# Experimental: as §1
# PXL2^LRR = conditions: in vitro; ref [16],[32]; cited from earlier work
# Experimental: as §1
structure (smiles),measurement,setting,value
CCC(C)C(NC(=O)C1CCCN1C(=O)C(CC(N)=O)NC(=O)C1CC(O)CN1C(=O)CNC(=O)C(CO)NC(=O)C1CC(O)CN1C(=O)C(NC(=O)C(CCC(=O)O)NC(=O)C(N)Cc1c[nH]cn1)C(C)C)C(=O)NC(CO)C(=O)NC(CC(N)=O)C(=O)O (centres unmarked),binding to LRR domain of PXY,LRR domain of PXY,able to bind
same,affinity for PXL1 relative to CLE19 (fold lower),PXL1^LRR [1],6 fold
same,SERK2-PXY interaction,SERK2-PXY interaction,can induce SERK2-PXY interaction
same,CLE peptide copurified with PXL1,PXL1 (PXL1^LRR),CLE19 was the only CLE peptide that co-purified with PXL1
same,Kd,PXL1^LRR [2],2 µM
same,direct binding to PXY^LRR (immunoprecipitation),PXY^LRR,could directly bind
same,direct binding to PXL1^LRR (immunoprecipitation),PXL1^LRR [3],could directly bind
same,direct binding to PXL2^LRR (immunoprecipitation),PXL2^LRR,could directly bind
